Values of other authors as cited in patent US20190201327A1, “TOPICAL APPLICATIONS OF WITHAFERIN A” (AMPERSAND BIOPHARMACEUTICALS, INC., priority 2017, published 2019).

How the values were obtained:
[1] = tested on: Ehrich ascites tumor; conditions: administration of WFA
[2] = tested on: human prostate cancer; conditions: mouse, in vivo
[3] = tested on: human breast cancer; conditions: nude mice
[4] = tested on: mouse melanoma tumor cell; conditions: in vivo
[5] = tested on: medullary thyroid cancer cells xenograft tumor; conditions: nude mice
[6] = tested on: pancreatic cancer cells xenograft tumor; conditions: mouse, in vivo
[7] = tested on: human colon cancer; conditions: mouse, in vivo
[8] = tested on: DMBA-induced oral carcinogenesis; conditions: hamsters
[9] = tested on: osteoporotic bone; conditions: at about 10 mg/kg/day

SMILES: CC1=C(CO)C(=O)O[C@@H]([C@@H](C)[C@H]2CC[C@H]3[C@@H]4C[C@H]5O[C@]56[C@@H](O)C=CC(=O)[C@]6(C)[C@H]4CC[C@]23C)C1 [WFA, Withaferin A]
- growth of Ehrich ascites tumor [1]: reduced the growth
- growth of human prostate cancer [2]: reduced the growth
- growth of human breast cancer [3]: inhibited the growth
- mouse melanoma tumor cell growth [4]: suppress
- tumor growth and metastasis [5]: significant inhibition of tumor growth and metastasis
- growth of pancreatic cancer cells xenograft tumor [6]: inhibited the growth
- growth of human colon cancer [7]: inhibited the growth
- DMBA-induced oral carcinogenesis [8]: Suppressed
- effect on osteoporotic bone [9]: exerts an anabolic effect on osteoporotic bone
